## Antibody variant affinities, Ab-14 heavy chain, assay B

From the AlphaSeq antibody data of Li et al. 2023 (doi:10.1038/s41467-023-39022-2), copy in the FLAb collection.

Target peptide (SARS-CoV-2 spike, HR2 region): PDVDLGDISGINAS

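The parent was found by panning a naive human phage display library on the peptide. These sequences belong to a second round, designed from the earlier measurements on random variants of the parent. Several design methods are mixed in this list. The scFvs were displayed on barcoded MATa yeast, the peptide on MATalpha yeast. Mating (16 h, 30 °C) was followed by selection of diploids and sequencing of their barcodes. Scores were corrected for input abundance and mapped to Kd with protein pairs of known affinity run in the same pool. The assay was run in six technical replicates.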

Parent: Ab-14, a human scFv built as VH, a (GGGGS)3 linker, VL. Only the CDRs of the heavy chain vary.
VH: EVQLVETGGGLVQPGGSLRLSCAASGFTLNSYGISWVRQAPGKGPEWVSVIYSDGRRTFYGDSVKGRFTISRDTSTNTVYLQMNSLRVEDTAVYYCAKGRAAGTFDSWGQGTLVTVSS
VL: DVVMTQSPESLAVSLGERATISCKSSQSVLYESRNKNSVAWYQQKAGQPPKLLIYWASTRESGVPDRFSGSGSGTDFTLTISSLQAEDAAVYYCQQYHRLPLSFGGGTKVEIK

Substitutions are numbered in sequence along the VH above, starting at 1 (not Kabat).
This list holds designs with at most six substitutions.
Each Kd is an estimate from the mating assay, the geometric mean of the replicates in which the pair was seen; lower is stronger.
Where no diploid with the target was found in any replicate, the entry reads "nd": below detection, most likely a poor binder, though not proof of it.
The authors' rule: three or more of the six replicates give a measured affinity, fewer mean a poor binder.
The range of this assay differs from that of the first round, and the authors advise against merging the two.
Three control strains display no target. For all heavy chain designs, 1% of the pairings with them gave a signal, with a median of 120 nM and one signal in twenty below 7.0 nM, so weak values seen in few replicates may be background. The control count says in how many pairings with the empty strains this scFv gave a signal.
The parent sequence was in this pool as ten entries: three were never detected, three once, and four in most replicates, with averages from 2.2 nM to 240 nM.

Variant T28N/S53A/G61V gave 3.3 nM (6 of 6 replicates; controls 1 of 18). Variant T58C/R100G/G103S showed nd (0 of 6 replicates; controls 1 of 18). Variant F27N/S31E/A101T/S107G gave 18 nM (6 of 6 replicates; controls 1 of 18). Variant S31E/S53Q/G55N/G103V/S107Q showed nd (0 of 6 replicates; controls 0 of 18). With R56E/G61C/R100E the result was nd (0 of 6 replicates; controls 1 of 18). For G26K/T28D/G61A/A101Q, the assay gave 10 nM (6 of 6 replicates; controls 2 of 18).

Variant S53W/D54W/G61D/V64F/R100Q/A101L showed nd (0 of 6 replicates; controls 0 of 18). Variant S31Q/F59A/R100S/A101E gave 280 pM (6 of 6 replicates; controls 0 of 18). With I34G/A101T the result was nd (0 of 6 replicates; controls 0 of 18). Variant T28D/R56K/S63M/A101T gave 850 pM (6 of 6 replicates; controls 0 of 18). For S31E/G61T/R100E/A101Q, the assay gave 5.3 nM (6 of 6 replicates; controls 0 of 18). For T28S/S31C/G61I/R100N, the assay gave nd (0 of 6 replicates; controls 0 of 18).

For S31E/R100H/S107L, the assay gave 220 nM (1 of 6 replicates; controls 0 of 18). Variant G61S/S63W/A102G gave nd (0 of 6 replicates; controls 0 of 18). Variant T28D/G61Q/R100K/A101E gave 430 pM (6 of 6 replicates; controls 1 of 18). With T28S/R56K/G61S/R100K the result was 2.4 nM (6 of 6 replicates; controls 0 of 18). Variant T28G/S53A/R100N/S107T showed 570 pM (6 of 6 replicates; controls 0 of 18). With T28D/G61C/R100Q/A101T the result was 3.6 nM (6 of 6 replicates; controls 0 of 18).

For S31M/G61T/A101F, the assay gave 1.4 nM (6 of 6 replicates; controls 1 of 18). Variant G26L/S31D/G61Q/R100Q showed nd (0 of 6 replicates; controls 0 of 18). For G26D/T28D/A101T, the assay gave 2.4 nM (6 of 6 replicates; controls 0 of 18). Variant G61L/F105M gave nd (0 of 6 replicates; controls 0 of 18). Variant G99E/R100H showed 3.6 nM (1 of 6 replicates; controls 0 of 18). Variant T28S/S31E/G61D/A101T showed 680 pM (6 of 6 replicates; controls 0 of 18).

Variant N30E/A101V/S107T showed 2.2 nM (3 of 6 replicates; controls 0 of 18). Variant T28D/G61A/S63R/A101Q gave 1.7 nM (6 of 6 replicates; controls 0 of 18). For F27H/G61E/D106F, the assay gave nd (0 of 6 replicates; controls 0 of 18). Variant S31D/A101W gave 14 nM (6 of 6 replicates; controls 1 of 18). With Y32H/T104C/F105D the result was nd (0 of 6 replicates; controls 0 of 18). Variant N30E/S53A/S63E/D106K showed nd (0 of 6 replicates; controls 1 of 18).

Variant S31D/G61I/S63H/R100K showed 23 nM (1 of 6 replicates; controls 1 of 18).

A selection of 5 entries from above:

| changes | apparent Kd | seen in | empty controls |
|---|---|---|---|
| T28D/G61Q/R100K/A101E | 430 pM | 6/6 | 1/18 |
| S31M/G61T/A101F | 1.4 nM | 6/6 | 1/18 |
| S31Q/F59A/R100S/A101E | 280 pM | 6/6 | 0/18 |
| T28N/S53A/G61V | 3.3 nM | 6/6 | 1/18 |
| G99E/R100H | 3.6 nM | 1/6 | 0/18 |